Test results from ChEMBL document CHEMBL4706672, “Discovery of a Napabucasin PROTAC as an Effective Degrader of the E3 Ligase ZFP91” (J Med Chem, 2021).

Chains of the proteins cited; added tags and fusions are not shown. Lines headed by an entry give the natural chain unless they say otherwise; changes in a name come on top.
UniProt P40763, whole entry, looked up: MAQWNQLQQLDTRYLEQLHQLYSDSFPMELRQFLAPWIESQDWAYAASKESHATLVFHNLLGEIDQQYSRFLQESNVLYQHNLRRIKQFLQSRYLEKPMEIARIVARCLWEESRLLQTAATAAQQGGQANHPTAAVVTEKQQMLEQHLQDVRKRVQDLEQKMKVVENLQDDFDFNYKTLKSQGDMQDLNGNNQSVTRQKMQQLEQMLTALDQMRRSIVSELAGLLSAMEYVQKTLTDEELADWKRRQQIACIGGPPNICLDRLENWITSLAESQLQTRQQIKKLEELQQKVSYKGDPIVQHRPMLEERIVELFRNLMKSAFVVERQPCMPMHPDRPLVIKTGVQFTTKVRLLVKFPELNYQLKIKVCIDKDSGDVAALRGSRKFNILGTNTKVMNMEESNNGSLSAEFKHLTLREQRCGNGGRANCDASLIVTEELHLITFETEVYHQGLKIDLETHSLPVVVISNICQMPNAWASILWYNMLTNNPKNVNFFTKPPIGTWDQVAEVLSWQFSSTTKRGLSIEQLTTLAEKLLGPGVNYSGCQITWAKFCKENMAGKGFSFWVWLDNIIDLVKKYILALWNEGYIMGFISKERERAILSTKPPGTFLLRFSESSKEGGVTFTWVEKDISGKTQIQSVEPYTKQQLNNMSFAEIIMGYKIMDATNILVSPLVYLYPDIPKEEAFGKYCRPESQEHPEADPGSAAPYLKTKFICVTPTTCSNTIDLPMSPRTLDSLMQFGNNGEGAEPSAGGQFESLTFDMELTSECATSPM
UniProt Q96SW2: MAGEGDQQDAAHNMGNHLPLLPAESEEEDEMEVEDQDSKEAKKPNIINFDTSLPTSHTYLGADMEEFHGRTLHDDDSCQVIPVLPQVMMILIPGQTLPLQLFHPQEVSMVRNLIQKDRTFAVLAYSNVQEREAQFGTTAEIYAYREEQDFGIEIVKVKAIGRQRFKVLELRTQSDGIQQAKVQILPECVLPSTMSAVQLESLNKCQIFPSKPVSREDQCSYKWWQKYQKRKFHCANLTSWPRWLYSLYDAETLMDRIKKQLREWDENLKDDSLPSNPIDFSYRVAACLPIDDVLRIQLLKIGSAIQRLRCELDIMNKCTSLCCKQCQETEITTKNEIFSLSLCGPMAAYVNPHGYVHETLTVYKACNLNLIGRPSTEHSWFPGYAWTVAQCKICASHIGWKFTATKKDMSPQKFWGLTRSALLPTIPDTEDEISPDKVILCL

Assays:
Type in all cases: cell-based
[1] = target: T1, Protein cereblon/Signal transducer and activator of transcription 3 (Homo sapiens, UniProt P40763+Q96SW2); test: Protac activity at CRBN/STAT3 in human BxPC-3 cells assessed as effect on GSPT1 protein expression level at 2 uM incubated for 16 hrs by western blot analysis
[2] = target: T1, Protein cereblon/Signal transducer and activator of transcription 3; test: Protac activity at CRBN/STAT3 in human MIA PaCa-2 cells assessed as effect on STAT3 expression levels at 1 uM incubated for 16 hrs by western blot analysis
[3] = target: Signal transducer and activator of transcription 3 (Homo sapiens) (UniProt P40763); test: Inhibition of STAT3 phosphorylation in human MIA PaCa-2 cells 1 uM after 16 hrs by western blot analysis
[4] = target: Signal transducer and activator of transcription 3 (Homo sapiens) (UniProt P40763); test: Inhibition of STAT3 in human BxPC-3 cells assessed as thermal stability by measuring shift in melting temperature at 100 uM measured after 1 hr by cellular thermal shift assay

Activity [1]: inactive | Activity [2]: inactive | inhibition [3]: Active | Activity [4]: Active
SMILES: CC(=O)c1cc2c(o1)C(=O)c1ccccc1C2=O [NAPABUCASIN]

Active and inactive are the calls of the source. The rule behind the calls is not given here.
